CN103110576A, “一种香菇多糖注射液制剂及其制备方法” (HEBEI KAISHENG MEDICAL TECHNOLOGY Co Ltd, priority 2013, dated 2013)

Test system: guinea pig [豚鼠]
Assay: Active systemic anaphylaxis test in guinea pigs
Type: in vivo
Details: positive control, challenge with 1% human albumin, 6 animals

人血白蛋白: 阳性对照:人血白蛋白(20%),广东卫伦生物制药有限公司,批号:20060824
allergic reaction after challenge: 均呈极强阳性反应
